Source: patent publication US4937266A, “Inhibitory agent of hepatic fibrosis” (priority 1988, dated 1990)

How the values were obtained:
prolyl hydroxylase = settings: rabbit, in vivo
hepatic fibrosis = settings: rabbit, in vivo

## CC(C)(CO)[C@@H](O)C(=O)NCCC(=O)NCCSSCCNC(=O)CCNC(=O)[C@H](O)C(C)(C)CO [Pantethine, D-bis-(N-pantothenyl-β-aminoethyl)-disulfide]
Prolyl hydroxylase
  Prolyl Hydroxylase Activity, Kidney: 672.3 ± 65.8 cpm/mg-protein
  effect on prolyl hydroxylase in the kidney (in words): no effect
Hepatic fibrosis
  inhibition of hepatic fibrosis (in words): inhibitory on hepatic fibrosis
